The record followed here is patent publication US6627628B1, “Substituted 4-amino-2-aryl-cyclopenta[d]pyrimidines, their production and use and pharmaceutical preparations containing same” (Aventis Pharma Deutschland, GmbH, priority 1998, dated 2003).

This assay deals with T1, soluble guanylate cyclase (sGC) (Bos taurus, UniProt P16068+P19687).
T1 construct: The sGC employed had been isolated from bovine lung; from tissue; host or cells: bovine lung
T1 sequence (P19687 1-691): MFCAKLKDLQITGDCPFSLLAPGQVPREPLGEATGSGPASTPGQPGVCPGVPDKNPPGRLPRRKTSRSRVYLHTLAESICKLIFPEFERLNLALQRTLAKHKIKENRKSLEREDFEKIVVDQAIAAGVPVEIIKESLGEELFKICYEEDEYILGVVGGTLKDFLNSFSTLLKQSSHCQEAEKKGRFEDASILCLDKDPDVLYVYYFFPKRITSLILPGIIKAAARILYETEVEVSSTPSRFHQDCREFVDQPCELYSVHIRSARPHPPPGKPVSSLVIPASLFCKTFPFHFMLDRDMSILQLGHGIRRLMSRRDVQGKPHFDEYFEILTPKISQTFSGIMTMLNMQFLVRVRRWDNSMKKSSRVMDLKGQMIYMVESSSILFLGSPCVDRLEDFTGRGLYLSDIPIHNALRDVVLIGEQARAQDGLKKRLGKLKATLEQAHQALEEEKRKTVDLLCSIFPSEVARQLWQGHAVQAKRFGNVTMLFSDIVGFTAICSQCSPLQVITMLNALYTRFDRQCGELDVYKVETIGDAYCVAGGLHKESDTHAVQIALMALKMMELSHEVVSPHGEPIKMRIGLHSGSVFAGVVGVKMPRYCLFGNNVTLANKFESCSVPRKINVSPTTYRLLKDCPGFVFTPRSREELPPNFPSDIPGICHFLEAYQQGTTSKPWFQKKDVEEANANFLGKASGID
T1 sequence (P16068 1-619): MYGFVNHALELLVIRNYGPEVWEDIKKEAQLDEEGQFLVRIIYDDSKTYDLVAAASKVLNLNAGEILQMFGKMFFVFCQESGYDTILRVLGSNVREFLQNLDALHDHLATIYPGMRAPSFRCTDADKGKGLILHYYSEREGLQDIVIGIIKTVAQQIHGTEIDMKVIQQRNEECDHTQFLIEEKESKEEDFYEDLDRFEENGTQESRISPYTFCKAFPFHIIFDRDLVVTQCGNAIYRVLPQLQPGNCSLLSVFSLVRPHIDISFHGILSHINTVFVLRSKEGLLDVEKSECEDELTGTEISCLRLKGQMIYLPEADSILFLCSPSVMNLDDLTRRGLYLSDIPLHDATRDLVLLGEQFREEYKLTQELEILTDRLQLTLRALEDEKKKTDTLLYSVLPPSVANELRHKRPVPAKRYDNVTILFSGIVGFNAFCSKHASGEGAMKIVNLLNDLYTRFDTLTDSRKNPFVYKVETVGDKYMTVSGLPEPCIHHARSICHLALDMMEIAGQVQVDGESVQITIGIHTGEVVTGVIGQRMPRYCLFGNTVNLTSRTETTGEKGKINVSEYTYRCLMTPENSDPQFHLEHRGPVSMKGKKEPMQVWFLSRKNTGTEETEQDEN
The assay is described as follows: Activation of soluble guanylate cyclase (cGMP enzyme immunoassay). To be noted: sGC isolated from bovine lung; test substance 50 μM; 5% DMSO; 37° C., 15 to 20 minutes; [cGMP]test substance/[cGMP]control (basal enzyme activity). It counts as biochemical. Here is the method:
Activation of Soluble Guanylate Cyclase
The activation of soluble guanylate cyclase (sGC), which catalyzes the conversion of guanosine triphosphate (GTP) to cyclic guanosine monophosphate (cGMP) and pyrophosphate, by the compounds according to the invention was quantified with the aid of an enzyme immunoassay (EIA) from Amersham. For this, the test substances were first incubated with sGC in microtiter plates and then the quantity of the resulting cGMP was determined.
The test solutions (100 μl per well) contained 50 mM triethanolamine (TEA) buffer (pH 7.5), 3 mM MgCl2, 3 mM reduced glutathione (GSH), 0.1 mM GTP, 1 mM 3-isobutyl-1-methylxanthine (IBMX), suitably diluted enzyme solution and the test substance or, in the control experiments, solvent. The test substances were dissolved in dimethyl sulfoxide (DMSO) and the solution was diluted with DMSO/water such that the final concentration c of test substance in the test batch was 50 μM. The DMSO concentration in the test batch was 5% (v/v). The reaction was started by addition of the sGC. […] The absorption of the samples was measured at 450 nm (reference wavelength 620 nm) in a microtiter plate reading apparatus. The cGMP concentration was determined by means of a calibration curve, which was obtained under the same experimental conditions. […]

Turning to “2-(4-Methylphenyl)-4-((3-pyridylmethyl)amino-6,7-dihydro-5H-cyclopenta[d]-pyrimidine [Example 44]”, the “n-fold stimulation at c = 50 μM” value is reported as 7 fold.
